TrxR1 substrate = substrates of rat thioredoxin reductase 1; Potency, µM (titrated, usually from 114 µM), inactives show at the top dose activity change, negative = substrate turnover; purified TrxR1 substrate turnover, NADPH consumption readout; AID 588456; O89049; actives 0.01% (n = 390,000); also: potency is read from the fitted curve at half-maximal effect; % is scaled to controls: 0 for no effect and ±100 for the full control effect; nearly all actives have a fitted effect of over 50% in size
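Rat TrxR1, dispensed at 90 nM, was prereduced with 400 uM NADPH (final) for 5 min at ~22 deg C, then incubated with compound 15 min before 400 uM selenite. A first-read NADPH fluorescence drop versus no-compound background flagged substrates.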
GALK inhibitor = galactokinase (human) inhibition | actives 0.007% (n = 270,000) | Purified GALK, Kinase-Glo residual ATP luminescence | Potency, µM (doses to about 57.5 µM), for inactives: top-dose activity change, negative = inhibition, usual class: inhibitors | P51570; also: potency is read from the fitted curve at half-maximal effect; % is scaled to controls: 0 for no effect and ±100 for the full control effect
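Human GALK (5 nM) with 35 uM ATP and 100 uM galactose in 20 mM HEPES pH 8.0, 5 mM MgCl2, 60 mM NaCl, 1 mM DTT, 0.01% BSA. After 1 h at room temperature, leftover ATP was read by Kinase-Glo Plus luminescence.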
miR-21 FLuc = miR-21 reporter, rising signal; HeLa miR-21 FLuc reporter, luciferase, 48 h; Potency, µM (doses to about 38.3 µM), for inactives: at the highest dose reporter change, positive = more light; 340,000 tested, under 10 active; AID 2288; active = well fitted rising curve with a large enough effect; inconclusive = small, poorly fitted or top-dose-only effect; inactive = no such curve, though single readings can be large or run the other way;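 further: % of control where 0% means no effect; miR-21 action dims this reporter so a rising signal means less miR-21 action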
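Luminescence from a firefly luciferase reporter carrying a miR-21 binding site downstream, stably expressed under a CMV promoter in HeLa cells that make miR-21 endogenously, reports miRNA modulation after 48 h compound exposure up to approximately 40uM final.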
rTrxR1 inhibitor = inhibitors of rat thioredoxin reductase 1 | O89049 | recombinant rTrxR1, NADPH fluorescence consumption, selenite substrate | Potency, µM (top dose mostly 114 µM), inactives show top-dose activity change, negative = inhibition, hits mostly inhibitors | actives 1% (n = 390,000) | AID 588453; also: potency is read from the fitted curve at half-maximal effect; % is scaled to controls: 0 for no effect and ±100 for the full control effect; nearly all actives have a fitted effect of over 65% in size
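Rat TrxR1 (90 nM in the dispensed reagent) was pre-reduced with 400 uM NADPH for 5 min at room temperature, then incubated with compound for 15 min. After 400 uM selenite was added, NADPH fluorescence (Ex 340/Em 450 nm) was followed for 8 min.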
PINK1 expr mod = modulators of PINK1 expression. actives 0.2% (n = 410,000). Potency, µM (titrated, usually from 76.6 µM), inactives show top-dose activation (PINK1 increase), usual class: activators. PINK1 immunofluorescence, high-content cytometry, 24 h; active = well fitted activation curve with a large enough effect; inconclusive = small, poorly fitted or top-dose-only effect; cell line not stated here; also: potency is read from the fitted curve at half-maximal effect; % of control where 0% means no effect; nearly all actives have a fitted effect of over 65% in size
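PINK1 protein, normally rapidly degraded, was detected by immunofluorescence after 24 hour compound treatment of a stable cell line. Titration data (5 concentrations) came from laser-scanning cytometry, with CCCP-treated wells as controls.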
* = called active by the depositor; [ ] = dose if it differs, or a comment. The list is not random: actives were taken first. Their share in the collection is about 1.1%. Unless noted, calls follow the shape of the dose curve; as a rule, active = well fitted curve in the direction sought with a large enough effect; inconclusive = small, poorly fitted or top-dose-only effect, or another doubt; inactive = no such curve, though single readings can be large; an effect the other way counts as inactive or inconclusive.

The first 3 entries, ahead of the listing:
For COc1ccc2ncc3c(-c4ccccc4)nn(-c4ccc(C)c(C)c4)c3c2c1 the results were TrxR1 substrate 25.8%, miR-21 FLuc 2.8%, rTrxR1 inhibitor -23.9% and PINK1 expr mod 1.0%.
For CCC(Cn1nnc2ccccc2c1=O)NC(=O)Nc1ccc(C)c(C)c1 (stereo not drawn) the results were TrxR1 substrate 7.0%, miR-21 FLuc 14.2%, rTrxR1 inhibitor 19.6% and PINK1 expr mod -1.1%.
Fc1cccc(Cl)c1C1Nc2cccc3cccc(c23)N1 was read as TrxR1 substrate -3.9%, GALK inhibitor 1.8%, miR-21 FLuc 0.2%, rTrxR1 inhibitor 56.2µM* and PINK1 expr mod 2.0%.

The list itself, repeating the preview:
For COc1ccc2ncc3c(-c4ccccc4)nn(-c4ccc(C)c(C)c4)c3c2c1 the results were TrxR1 substrate 25.8%, miR-21 FLuc 2.8%, rTrxR1 inhibitor -23.9% and PINK1 expr mod 1.0%.
For CCC(Cn1nnc2ccccc2c1=O)NC(=O)Nc1ccc(C)c(C)c1 (stereo not drawn) the results were TrxR1 substrate 7.0%, miR-21 FLuc 14.2%, rTrxR1 inhibitor 19.6% and PINK1 expr mod -1.1%.
Fc1cccc(Cl)c1C1Nc2cccc3cccc(c23)N1 was read as TrxR1 substrate -3.9%, GALK inhibitor 1.8%, miR-21 FLuc 0.2%, rTrxR1 inhibitor 56.2µM* and PINK1 expr mod 2.0%.
Screening Clc1cccc(Cl)c1C1Nc2cccc3cccc(c23)N1 returned TrxR1 substrate -7.1%, GALK inhibitor -2.7%, miR-21 FLuc 21.0%, rTrxR1 inhibitor -4.0% and PINK1 expr mod 3.0%.
`COc1cccc(NC(=O)C2CCN(c3ccc(Sc4ccc(C)cc4)nn3)CC2)c1` gave TrxR1 substrate 5.1%, miR-21 FLuc 7.9%, rTrxR1 inhibitor 19.1% and PINK1 expr mod 1.5%.
For Cc1cc(N2CCN(C)CC2)nc2ccc(NC(=O)c3ccc(C(C)(C)C)cc3)cc12 the results were TrxR1 substrate -1.9%, miR-21 FLuc 6.56µM*, rTrxR1 inhibitor 9.9%[2.29 µM] and PINK1 expr mod -1.7%.
Screening Cc1cc(N2CCN(C)CC2)nc2ccc(NC(=O)Nc3ccc(Cl)cc3)cc12 returned TrxR1 substrate 9.0%, miR-21 FLuc -28.8%, rTrxR1 inhibitor 13.2% and PINK1 expr mod 2.4%.
`O=c1c2ccccc2nc2n1CC/C2=C/N1CCN(c2cccc(C(F)(F)F)c2)CC1` gave TrxR1 substrate -0.9%, GALK inhibitor 4.7%, miR-21 FLuc -9.3%, rTrxR1 inhibitor 14.1µM* and PINK1 expr mod -1.7%[38.3 µM].
O=C(O)c1ccc2c(=O)n3c(nc2c1)/C(=C/c1ccc(C(F)(F)F)cc1)CC3 was read as TrxR1 substrate 28.6%, GALK inhibitor 4.2%, miR-21 FLuc -5.8%, rTrxR1 inhibitor -1.1% and PINK1 expr mod -1.1%.
O=C(NCC(c1ccco1)S(=O)(=O)c1cccs1)c1ccc(F)c(F)c1 (stereo not drawn) was read as TrxR1 substrate 6.2%[57.1 µM], miR-21 FLuc 2.3%, rTrxR1 inhibitor 8.2%[57.1 µM] and PINK1 expr mod -0.9%.
`COc1ccc(NC2C=CS(=O)(=O)C2)cc1` (stereo not drawn) gave TrxR1 substrate 6.7%, GALK inhibitor 5.1%, miR-21 FLuc -0.2%, rTrxR1 inhibitor 15.8µM* and PINK1 expr mod 0.8%.
Screening CCOc1ccc(NC2C=CS(=O)(=O)C2)cc1 (stereo not drawn) returned TrxR1 substrate 7.7%[57.1 µM], GALK inhibitor 0.2%, miR-21 FLuc -4.9%, rTrxR1 inhibitor inconclusive and PINK1 expr mod -0.2%.
`O=C(CCN1CCC(c2ccc(Cl)s2)=N1)c1ccc(Cl)s1` gave TrxR1 substrate 2.1%, miR-21 FLuc -0.8%, rTrxR1 inhibitor 2.82µM* and PINK1 expr mod inconclusive.
For O=C(CCC(=O)N1CCN(c2ccccc2F)CC1)c1ccc(Cl)s1 the results were TrxR1 substrate -5.0%, rTrxR1 inhibitor 4.1% and PINK1 expr mod 0.9%.
For CCS(=O)(=O)c1ncc(Cl)c(C(=O)Nc2ccccc2OC)n1 the results were TrxR1 substrate 0.7%, GALK inhibitor 3.8%, miR-21 FLuc -0.6%, rTrxR1 inhibitor inconclusive and PINK1 expr mod -0.5%.
Screening COc1ccc(OC)c(NC(=O)c2nc(S(=O)(=O)Cc3ccc(F)cc3)ncc2Cl)c1 returned TrxR1 substrate 1.0%, miR-21 FLuc 11.7µM*, rTrxR1 inhibitor 0.708µM* and PINK1 expr mod 8.2%.
Screening CCOc1ccccc1NC(=O)c1nc(S(=O)(=O)Cc2ccccc2)ncc1Cl returned TrxR1 substrate -3.6%, GALK inhibitor -1.2%, miR-21 FLuc inconclusive, rTrxR1 inhibitor 7.94µM* and PINK1 expr mod -0.9%.
COc1ccc2nc(NC(=O)c3nc(S(=O)(=O)Cc4ccc(C)cc4)ncc3Cl)sc2c1 was read as TrxR1 substrate -5.0%, miR-21 FLuc inconclusive, rTrxR1 inhibitor -6.9% and PINK1 expr mod 9.9%.
`COc1ccccc1NC(=O)c1nc(S(=O)(=O)Cc2ccccc2)ncc1Cl` gave TrxR1 substrate -0.1%, GALK inhibitor -1.7%, miR-21 FLuc inconclusive, rTrxR1 inhibitor 3.55µM* and PINK1 expr mod -1.6%.
For COc1ccc(C(=O)N2CCC3(CC2)c2ccccc2[C@@H](NC(=O)c2ccccn2)[C@@H]3OC)c(O)c1 the results were PINK1 expr mod -1.3%.
For CCCCCOc1ccc(/C=C/C(=O)Nc2sc(C(C)=O)c(C)c2C(=O)OCC)cc1OC the results were TrxR1 substrate -1.6%, miR-21 FLuc 0.6%, rTrxR1 inhibitor 13.7% and PINK1 expr mod -1.3%.
Screening CN(C)c1ncc2nc(-c3cccs3)c(=O)n(C[C@H]3CCCO3)c2n1 returned PINK1 expr mod 0.4%.
`COc1cccc(NC(=O)c2ccc(-c3ccccc3[N+](=O)[O-])o2)c1` gave TrxR1 substrate -6.8%[57.1 µM], GALK inhibitor 1.7%, miR-21 FLuc -28.0%, rTrxR1 inhibitor 15.8µM* and PINK1 expr mod 0.5%.
`Cc1ccc(NC(=O)c2cc(S(=O)(=O)N3CCC(C)CC3)cn2C)cc1Cl` gave TrxR1 substrate 2.2%[57.1 µM], miR-21 FLuc -4.1%, rTrxR1 inhibitor 13.5%[57.1 µM] and PINK1 expr mod 0.2%.
O=C(CN1C(=O)CC(c2ccco2)Sc2ccccc21)Nc1ccc(Br)cc1 (stereo not drawn) was read as TrxR1 substrate 1.2%, miR-21 FLuc 9.4%, rTrxR1 inhibitor 11.0% and PINK1 expr mod 3.7%.
Screening O=C(CN1C(=O)CC(c2ccco2)Sc2ccccc21)Nc1ccccc1F (stereo not drawn) returned TrxR1 substrate 2.3%, GALK inhibitor -2.8%, miR-21 FLuc -6.0%, rTrxR1 inhibitor 25.1µM* and PINK1 expr mod 5.8%.
CN(CCCC1CCCC1)C(=O)CC1C(=O)NCCN1Cc1cccc(F)c1F (stereo not drawn) was read as TrxR1 substrate 9.4%, GALK inhibitor 4.3%, miR-21 FLuc -4.5%, rTrxR1 inhibitor 39.8µM* and PINK1 expr mod 1.8%.
Screening CCN(CC)c1ccc(NC2CC(=O)N(CCc3ccc(OC)cc3)C2=O)cc1 (stereo not drawn) returned TrxR1 substrate 0.9%, GALK inhibitor -1.3%, miR-21 FLuc -2.8%, rTrxR1 inhibitor inconclusive and PINK1 expr mod 2.24µM*.
`COc1ccccc1N1C(=O)C2C(c3ccccc3F)NN(C(=O)c3ccc(C)cc3)C2C1=O` (stereo not drawn) gave TrxR1 substrate -1.5%, miR-21 FLuc -12.7%, rTrxR1 inhibitor 50.1µM* and PINK1 expr mod -0.7%.
For Cc1oc(-c2ccccc2NC(=O)c2ccccn2)nc1CNC(=O)c1cccc(C#CC(C)(C)O)c1 the results were PINK1 expr mod -1.3%.

Compound activity (PubChem BioAssay)
